# According to PMC8899474, “Discovery and Characterization of the Key Constituents in Ginkgo biloba Leaf Extract With Potent Inhibitory Effects on Human UDP-Glucuronosyltransferase 1A1” (Frontiers in Pharmacology, 2022):
# Biological target: T1, hUGT1A1 (Homo sapiens, UniProt P22309)
# T1 sequence (P22309 26-533): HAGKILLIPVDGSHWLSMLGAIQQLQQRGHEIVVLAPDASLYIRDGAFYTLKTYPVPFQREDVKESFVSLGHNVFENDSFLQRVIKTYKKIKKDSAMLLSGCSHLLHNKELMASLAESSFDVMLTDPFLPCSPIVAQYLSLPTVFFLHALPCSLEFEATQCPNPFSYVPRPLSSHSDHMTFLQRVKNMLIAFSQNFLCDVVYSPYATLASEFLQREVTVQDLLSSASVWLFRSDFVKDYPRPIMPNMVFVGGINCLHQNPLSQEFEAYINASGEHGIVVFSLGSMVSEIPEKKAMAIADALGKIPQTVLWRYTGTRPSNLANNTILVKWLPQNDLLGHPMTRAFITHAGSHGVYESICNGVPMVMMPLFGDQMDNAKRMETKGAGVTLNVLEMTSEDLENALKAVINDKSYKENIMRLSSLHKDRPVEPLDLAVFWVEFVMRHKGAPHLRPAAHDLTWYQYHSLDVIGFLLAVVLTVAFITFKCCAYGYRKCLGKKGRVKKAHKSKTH
# Test: UGT1A1 inhibition assay in living HeLa-UGT1A1 cells (NHPN-O-glucuronidation, LC-FD)
# Type: cell-based
# Set-up: expressed in transfected cells; host or cells: HeLa cells, stably transduced with lentivirus (HeLa-UGT1A1)
# Details: hUGT1A1-catalyzed NHPN-O-glucuronidation in HeLa-UGT1A1 cells
# Procedure: A RF-20A FD detector coupled UFLC system (Shimadzu, Kyoto, Japan), equipped with a DGU-20A5R vacuum degasser, two LC-20ADXR pumps, a SIL-20ACXR autosampler and a CTO-20A column oven, was used to quantify NHPN and NHPNG. Chromatographic separation of analytes was carried out on a shim-pack Acchrom HC-C18 analytical column (2.0 × 150 mm, 4.6 μm particle size), while the column temperature was kept at 40°C. The flow rate was kept at 0.5 ml/min. The mobile phase consisted of acetonitrile (A) and water containing 0.2% formic acid (B). The gradient of the mobile phase was as follows: 0–0.5 min, 80–60% B; 0.5–3.5 min, 60–5% B; 3.5–5 min, 5% B; 5–7.5 min, equilibration with 80% B. The excitation wavelength and the emission wavelength were set at 370 and 520 nm, respectively for detection.
# The inhibitory effects of herbal products and chemical constituents of GBL extract on UGT1A1 were investigated in living HeLa-UGT1A1 cells by using a specific fluorescent substrate, NHPN, as a probe. HeLa-UGT1A1 cells were cultured at 37°C in 5% CO2 in Modified Eagle’s Medium (MEM) containing 0.1% antibiotic-antimycoticmix, supplemented with 10% fetal bovine serum (FBS). HeLa-UGT1A1 cells were seeded in 96-well plates and cultured for 24 h. […]
Substance,IC50 (read-out: IC50),IC50
Ginkgolide B,> 100 µM,
Ginkgolide C,,> 100 µM

# Like-named read-outs stand apart in the source and are kept apart here.
